Data published in patent US20240158368A1, “Pyrrolidine Main Protease Inhibitors as Antiviral Agents” (AbbVie Inc., priority 2022, published 2024).

Test system: A172, PC3, HepG2 and IPSC-derived cardiomyocytes
Settings: up to 300 μM, with and without valspodar, 4 cell types

C=C(C)[C@H]1Cc2c(ccc3c2O[C@@H]2COc4cc(OC)c(OC)cc4[C@@H]2C3=O)O1 [rotenone]
Mitochondrial toxicity (cytotoxicity in glucose- vs galactose-based media): pronounced increase in cytotoxicity in galactose-based media
